Measured values from PubChem BioAssay AID602333 (Sanford-Burnham Center for Chemical Genomics, 2012).
Only a part is listed here, and it is no random draw. The source made the active and inactive calls.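 How the source made its calls: active means mean inhibition at least 40% at 20 µM, or signal 3 deviations below plate average, so some actives read negative; inactive means the rest.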

The chains behind the UniProt entries cited, without tags or fusion partners.
UniProt P00735, whole entry: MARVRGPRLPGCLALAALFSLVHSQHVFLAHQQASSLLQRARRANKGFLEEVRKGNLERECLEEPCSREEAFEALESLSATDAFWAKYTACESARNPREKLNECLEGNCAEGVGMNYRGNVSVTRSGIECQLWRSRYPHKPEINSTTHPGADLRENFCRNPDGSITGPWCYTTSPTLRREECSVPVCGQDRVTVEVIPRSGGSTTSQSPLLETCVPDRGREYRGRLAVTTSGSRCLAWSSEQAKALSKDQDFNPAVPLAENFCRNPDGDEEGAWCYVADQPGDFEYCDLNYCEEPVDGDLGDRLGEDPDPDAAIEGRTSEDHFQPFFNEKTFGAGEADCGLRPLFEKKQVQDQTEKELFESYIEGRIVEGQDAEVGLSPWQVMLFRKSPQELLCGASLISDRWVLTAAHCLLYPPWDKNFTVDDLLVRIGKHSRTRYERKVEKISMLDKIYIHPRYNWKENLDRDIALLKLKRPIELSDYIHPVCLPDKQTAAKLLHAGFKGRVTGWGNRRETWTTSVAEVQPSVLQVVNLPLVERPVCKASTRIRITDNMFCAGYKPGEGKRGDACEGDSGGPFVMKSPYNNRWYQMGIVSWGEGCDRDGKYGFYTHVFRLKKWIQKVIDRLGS

These compounds were tested against Prothrombin (Bos taurus) (UniProt P00735) (assay: bovine thrombin protease inhibition, confirmation, counter-screen for Rpn11 inhibitor project, biochemical, fluorescence polarization, single concentration (AID 602333;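 further: plate controls were thrombin with DMSO for no effect and buffer wells lacking thrombin for full effect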)). Settings: bovine thrombin cleavage of Ub4-pepOG, at 20 µM, hits give high values.
In the case of `CCCCCCCCCCCCCCCC1C[N+](C)(C)CCOP(C)(=O)O1` (stereo unspecified), the inhibition is reported as inactive: -12.4%.
